Data taken from patent US20210161883A1, “EZH2 INHIBITOR-INDUCED GENE EXPRESSION” (Constellation Pharmaceuticals, Inc., priority 2017, published 2021).

Tested on: global H3K27me3 levels in Karpas-422 GCB-DLBCL cells
Experiment: H3K27me3 western blotting in Karpas-422 cells treated with EZH2 inhibitors
Assay type: cell-based, human
Details: 1.5 μM, 4 days, vs DMSO, total H3 as control
Experimental: Lymphoma cell lines were grown in 10 ml cultures (as described in 2.1). […] After drug treatment, cells were centrifuged at 500×g for 3 min, supernatant was removed, and cell pellet was resuspended in 0.75 ml Trizol Reagent (Life Technologies, catalog #15596-026). RNA was extracted as per the manufacturer's protocol, resuspended in nuclease-free water, quantified using a NanoDrop 2000 UV-vis spectrophotometer (Thermo Scientific), and sent to Ocean Ridge Biosciences (http://www.oceanridgebio.com/) for RNA-sequencing. […]
In order to detect potential EZH2 inhibitor-mediated gene expression changes that could serve as a manifestation of target engagement, Karpas-422 GCB-DLBCL cells were treated with vehicle (dimethyl sulfoxide; DMSO) or Compound 1 for 4 days. […] The samples that were committed to RNA-sequencing were analyzed for changes in H3K27me3 levels by western blotting. […]

CCN(c1cc(-c2ccc(CN3CCOCC3)cc2)cc(C(=O)NCc2c(C)cc(C)[nH]c2=O)c1C)C1CCOCC1 [EPZ-6438]
global H3K27me3 levels (western blotting): substantial loss of H3K27me3
